This note sets out measurements from ChEMBL document CHEMBL5252528, “Transient Receptor Potential Melastatin 8 Channel (TRPM8) Modulation: Cool Entryway for Treating Pain and Cancer” (J Med Chem, 2016).

Sequences of proteins named here, by UniProt entry; tags and fusion partners are left off.
UniProt Q7Z2W7, whole entry: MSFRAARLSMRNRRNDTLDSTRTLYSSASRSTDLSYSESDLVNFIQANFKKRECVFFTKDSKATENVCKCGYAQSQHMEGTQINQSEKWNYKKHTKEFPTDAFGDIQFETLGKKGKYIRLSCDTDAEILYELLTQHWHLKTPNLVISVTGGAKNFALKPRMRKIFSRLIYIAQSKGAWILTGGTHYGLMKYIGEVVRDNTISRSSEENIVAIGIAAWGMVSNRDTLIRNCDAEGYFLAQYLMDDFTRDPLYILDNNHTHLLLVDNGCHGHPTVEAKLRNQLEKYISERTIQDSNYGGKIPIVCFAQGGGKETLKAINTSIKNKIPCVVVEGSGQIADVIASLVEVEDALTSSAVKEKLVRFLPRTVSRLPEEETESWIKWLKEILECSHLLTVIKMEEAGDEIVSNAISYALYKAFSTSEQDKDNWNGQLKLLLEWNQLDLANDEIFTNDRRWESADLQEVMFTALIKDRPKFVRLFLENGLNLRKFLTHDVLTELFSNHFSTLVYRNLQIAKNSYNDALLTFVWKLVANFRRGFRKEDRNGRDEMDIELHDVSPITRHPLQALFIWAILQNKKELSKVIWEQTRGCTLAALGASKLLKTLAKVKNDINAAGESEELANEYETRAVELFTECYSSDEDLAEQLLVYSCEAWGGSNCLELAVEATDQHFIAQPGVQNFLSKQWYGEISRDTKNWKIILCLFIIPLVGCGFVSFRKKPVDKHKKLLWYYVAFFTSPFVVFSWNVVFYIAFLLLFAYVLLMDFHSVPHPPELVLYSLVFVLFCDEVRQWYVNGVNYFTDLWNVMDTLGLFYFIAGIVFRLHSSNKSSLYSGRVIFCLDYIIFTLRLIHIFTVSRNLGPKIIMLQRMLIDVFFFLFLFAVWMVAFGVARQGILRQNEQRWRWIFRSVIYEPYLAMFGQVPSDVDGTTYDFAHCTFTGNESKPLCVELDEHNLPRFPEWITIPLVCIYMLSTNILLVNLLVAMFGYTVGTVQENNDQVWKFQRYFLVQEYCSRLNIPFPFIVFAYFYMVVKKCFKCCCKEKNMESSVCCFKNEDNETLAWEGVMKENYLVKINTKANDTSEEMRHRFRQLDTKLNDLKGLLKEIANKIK

This test has as its target Transient receptor potential cation channel subfamily M member 8 (Homo sapiens, UniProt Q7Z2W7). Kind of test: Antagonist activity at cold activated human TRPM8 expressed in HEK293 cells. The class given is cell-based.

For orientation: IC50 means the concentration that inhibits the measured activity by half. A lower IC50 goes with greater potency in that assay. With `CCn1nnc(-c2sc(-c3cccc(F)c3)nc2O)n1`, the IC50 was 10 nM.
